The text below walks through data of PubChem BioAssay AID504339 (National Center for Advancing Translational Sciences (NCATS), 2011).

Chains of the proteins cited; added tags and fusions are not shown.
UniProt O75164, whole entry: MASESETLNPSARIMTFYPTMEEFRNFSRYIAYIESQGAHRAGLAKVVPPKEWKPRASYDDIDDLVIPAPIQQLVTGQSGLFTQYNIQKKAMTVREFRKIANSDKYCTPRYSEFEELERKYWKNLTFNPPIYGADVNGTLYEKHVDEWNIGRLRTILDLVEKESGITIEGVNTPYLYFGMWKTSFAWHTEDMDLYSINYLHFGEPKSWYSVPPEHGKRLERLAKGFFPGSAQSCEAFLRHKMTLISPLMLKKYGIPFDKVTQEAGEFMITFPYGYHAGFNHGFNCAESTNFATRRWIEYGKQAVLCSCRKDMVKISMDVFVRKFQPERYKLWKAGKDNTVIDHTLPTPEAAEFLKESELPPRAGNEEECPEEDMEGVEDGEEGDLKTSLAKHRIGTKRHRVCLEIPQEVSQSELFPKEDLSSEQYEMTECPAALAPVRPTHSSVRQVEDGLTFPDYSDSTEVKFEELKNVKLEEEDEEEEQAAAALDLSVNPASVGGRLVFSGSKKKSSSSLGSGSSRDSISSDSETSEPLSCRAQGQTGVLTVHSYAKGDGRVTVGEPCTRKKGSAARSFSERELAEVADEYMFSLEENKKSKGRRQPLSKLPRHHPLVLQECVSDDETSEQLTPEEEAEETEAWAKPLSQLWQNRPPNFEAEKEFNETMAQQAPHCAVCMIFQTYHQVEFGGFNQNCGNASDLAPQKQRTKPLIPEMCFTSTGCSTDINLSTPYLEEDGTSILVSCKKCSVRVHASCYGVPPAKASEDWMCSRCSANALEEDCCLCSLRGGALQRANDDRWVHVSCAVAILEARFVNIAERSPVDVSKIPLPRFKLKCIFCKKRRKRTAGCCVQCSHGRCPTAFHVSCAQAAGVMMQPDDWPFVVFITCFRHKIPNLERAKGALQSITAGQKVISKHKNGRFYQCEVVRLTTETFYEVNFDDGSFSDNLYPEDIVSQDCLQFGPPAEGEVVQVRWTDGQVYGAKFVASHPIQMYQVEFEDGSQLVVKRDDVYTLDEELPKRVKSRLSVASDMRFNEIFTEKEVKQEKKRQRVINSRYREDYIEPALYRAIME

The list shows a part of the results, in another mix than the full data. Inconclusive results are not listed. Where a call stands in place of a potency, no number is given. Activity calls are given as the source filed them. The call rests on the fitted dose curve; in most records, active means well fitted inhibition curve with a large enough effect; inconclusive means small, poorly fitted or top-dose-only effect; inactive means no such curve, though single readings can be large or run the other way.
Potency means the concentration at half of the fitted maximal effect.

The target in this test is Lysine-specific demethylase 4A (Homo sapiens) (UniProt O75164). Description: qHTS Assay for Inhibitors of JMJD2A-Tudor Domain. Further: nearly all actives have a fitted effect of over 50% in size. The conditions noted are these: AlphaScreen JMJD2A-Tudor / H3K4me3 peptide binding; series mostly up to 114 µM. In general terms: In qHTS, concentration-response curves come from the screen itself.
For the compound `CC(C)c1ccc(OP(C)(=O)Nc2ccc(SC(F)(F)F)cc2)cc1` (stereo not given), the Potency entry is “inactive”.
For the compound `CP(=O)(Nc1ccccc1F)Oc1ccccc1` (stereo not given), the Potency entry was “inactive”.
As to `O=C(OCCN1CCN(CCOCc2ccccc2)CC1)C(O)(c1ccccc1)c1ccccc1`, the Potency result is “inactive”.
Take `COc1ccc(OP(C)(=O)Nc2ccc(SC(F)(F)F)cc2)cc1` (stereo not given): the Potency result was “inactive”.
`CCOC(=O)c1ccc(NP(C)(=O)Oc2ccc(F)cc2)cc1` (stereo not given): the Potency result was “inactive”.
As to `CCCCCOc1ccc(NP(C)(=O)Oc2ccc(Cl)cc2Cl)cc1` (stereo not given), the Potency result is “inactive”.
In the case of `CP(=O)(Nc1ccccc1)Oc1ccc(F)cc1` (stereo not given), the Potency entry was “inactive”.
As for `CCN(CC)CCCOC(=O)C(O)(c1ccccc1)C1CCCCC1` (stereo not given), the Potency entry is “inactive”.
Regarding `COc1ccc(NP(C)(=O)Oc2ccccc2OC)cc1` (stereo not given), the Potency is active: 14.1 µM.
`CN(C)CCOC(=O)C(O)(c1ccccc1)C1CCCCC1` (stereo not given): the Potency entry was “inactive”.
As for `COc1ccc(OP(C)(=O)Nc2cccc(Br)c2)cc1` (stereo not given), the Potency entry was “inactive”.
With `Cc1c(C(c2ccc3c(c2)OCO3)c2c(C)n(C)n(-c3ccccc3)c2=O)c(=O)n(-c2ccccc2)n1C.O=[N+]([O-])c1cc([N+](=O)[O-])c(O)c([N+](=O)[O-])c1`, the Potency entry was “inactive”.
Regarding `Cc1cc(-c2cccc3ccccc23)c(C)cn1.O=[N+]([O-])c1cc([N+](=O)[O-])c(O)c([N+](=O)[O-])c1`, the Potency entry was “inactive”.
Take `O=[N+]([O-])c1ccc(OP2(=O)COCCO2)cc1` (stereo not given): the Potency entry is “inactive”.
On the same count and under the same terms, the same measure for `CCOP(C)(=S)SCC(=O)NC(C)(CC)C(=O)O` (stereo not given): “inactive”; for `CP(=O)(Nc1ccc(SC(F)(F)F)cc1)Oc1ccc(F)cc1` (stereo not given): “inactive”; for `Cc1ccccc1NP(C)(=O)Nc1ccccc1C`: “inactive”.
Consider `CP(=O)(Nc1ccc2c(c1)OCCO2)Oc1ccccc1` (stereo not given), for which the Potency result was “inactive”.
With `CCc1ccc(OP(C)(=O)Nc2cccnc2)cc1` (stereo not given), the Potency entry is “inactive”.
The same measure, in the same setting: then `CP(=O)(Oc1ccccc1)N1CCOC1=O` (stereo not given), with “inactive”.
Regarding `O=C(OCCCN1CCCC1)C(O)(c1ccccc1)C1CCCCC1` (stereo not given), the Potency result was “inactive”.
Still for that read-out and setting: the same measure for `COc1ccccc1OP(C)(=O)Nc1c(C)n(C)n(-c2ccccc2)c1=O` (stereo not given): “inactive”; for `COc1ccc(OP(C)(=O)Nc2ccc(Br)cc2)cc1` (stereo not given): “inactive”; for `CCN(CC)CC(O)COC(=O)C(O)(c1ccccc1)C1CCCCC1` (stereo not given): “inactive”.
With `CN(C)C(=O)c1c([N+](=O)[O-])cc([N+](=O)[O-])cc1[N+](=O)[O-]`, the Potency entry is “inactive”.
As for `CP(=O)(Nc1ccc(Cl)cc1)Oc1ccc(F)cc1` (stereo not given), the Potency entry was “inactive”.
On to `COc1ccccc1OP(C)(=O)Nc1ccccc1Br` (stereo not given), for which the Potency entry was “inactive”.
Consider `CC(C)(C)c1ccc(OP(C)(=O)O)cc1`, for which the Potency entry was “inactive”.
In the case of `CP(=O)(OC12CC3CC(CC(C3)C1)C2)OC12CC3CC(CC(C3)C1)C2`, the Potency result was “inactive”.
For the compound `CCOC(=O)c1ccc(NP(C)(=O)Oc2ccc(Cl)cc2)cc1` (stereo not given), the Potency result is “inactive”.
In the case of `Nc1ccc2c(ccc3cccnc32)n1.O=[N+]([O-])c1cc([N+](=O)[O-])c(O)c([N+](=O)[O-])c1`, the Potency entry was “inactive”.
For `COc1ccc(OP(C)(=O)Nc2ccccc2Br)cc1` (stereo not given), the Potency result was “inactive”.
As to `Cc1cc(C)cc(OP(C)(=O)Nc2cccc(C(F)(F)F)c2)c1` (stereo not given), the Potency entry is “inactive”.
As to `CCCCCCCCCCCCCCCC1C[N+](C)(C)CCOP(C)(=O)O1` (stereo not given), the Potency entry is “inactive”.
Turning to `CP(=O)(Nc1ccc(Cl)cc1Cl)Oc1ccccc1` (stereo not given), the Potency result is “inactive”.
For `CP(=O)(OCCOc1ccccc1)OCCOc1ccccc1`, the Potency entry is “inactive”.
With `CN(C)CCOC(=O)C(O)(c1ccccc1)C1CCCC1` (stereo not given), the Potency entry was “inactive”.
With `COc1ccc(OP(C)(=O)Nc2ccccn2)cc1` (stereo not given), the Potency entry is “inactive”.
Same read-out and setting: then `COc1ccccc1OP(C)(=O)Nc1ccc(Br)cc1` (stereo not given), with “inactive”; and `CCc1ccc(OP(C)(=O)O)cc1`, with “inactive”.
In the case of `COc1ccccc1OP(C)(=O)Nc1ccc(C)cc1C` (stereo not given), the Potency result is “inactive”.
For `CP(=O)(Nc1ccccn1)Oc1ccccc1` (stereo not given), the Potency result is “inactive”.
For the compound `Cc1c(NP(C)(=O)Oc2ccc(C(C)C)cc2)c(=O)n(-c2ccccc2)n1C` (stereo not given), the Potency result is “inactive”.
Consider `CCN(CC)CCCOC(=O)C(O)(c1ccccc1)c1ccccc1`, for which the Potency entry was “inactive”.
As to `Cc1cccc(C)c1OP(C)(N)=O` (stereo not given), the Potency result is “inactive”.
As for `CC(C)(C)c1ccc(OP(C)(=O)Nc2ccc(SC(F)(F)F)cc2)cc1` (stereo not given), the Potency result was “inactive”.
As for `O=[N+]([O-])c1ccc2c(c1)C=Nc1ccccc1O2`, the Potency result is “inactive”.
With `O=[N+]([O-])c1cc([N+](=O)[O-])c(Nc2cccnc2)c([N+](=O)[O-])c1`, the Potency entry was “inactive”.
Regarding `COc1ccc(OP(C)(=O)Nc2cccc(F)c2)cc1` (stereo not given), the Potency result was “inactive”.
Still for that read-out and setting: then `COc1ccccc1OP(C)(=O)Nc1cc(Cl)ccc1C` (stereo not given), with “inactive”.
On the same count and under the same terms, the same measure for `Cc1cc(C)cc(OP(C)(N)=O)c1` (stereo not given): “inactive”.
`CCOC(=O)c1ccc(NP(C)(=O)Oc2ccccc2)cc1` (stereo not given): the Potency result is “inactive”.
With `Cc1ccc(NP(C)(=O)Oc2ccccc2)c(C)c1` (stereo not given), the Potency result was “inactive”.
`COc1ccccc1OP(C)(=O)Nc1ccc(C)cc1` (stereo not given): the Potency entry is “inactive”.
Regarding `COc1ccccc1OP(C)(=O)Nc1ccccc1` (stereo not given), the Potency result is “inactive”.
As to `CP(=O)(Nc1ccccc1Br)Oc1ccccc1` (stereo not given), the Potency result is “inactive”.
Turning to `CP(=S)(Nn1cnnc1)Oc1ccccc1` (stereo not given), the Potency result is “inactive”.
Consider `Cc1cc(C)cc(OP(C)(=O)Nc2ccc(SC(F)(F)F)cc2)c1` (stereo not given), for which the Potency entry is “inactive”.
Same read-out and setting: the same measure for `CP(=O)(NC(=O)Nc1ccccc1)Oc1ccccc1` (stereo not given): “inactive”.
Still for that read-out and setting: the same measure for `CP(=O)(Oc1ccccc1)OC(c1ccccc1)C(F)(F)F` (stereo not given): “inactive”.
Consider `Cc1cccc(C)c1OP(C)(=O)Nc1ccc(SC(F)(F)F)cc1` (stereo not given), for which the Potency result was “inactive”.
For the compound `CP(=O)(Nc1ccc(SC(F)(F)F)cc1)Oc1ccc(Cl)cc1` (stereo not given), the Potency result is “inactive”.
For the compound `CP(=O)(Nc1ccccn1)Oc1ccc(Cl)cc1` (stereo not given), the Potency result is “inactive”.
As to `CCOP(C)(=S)SCC(=O)NC(C)C(=O)O` (stereo not given), the Potency entry was “inactive”.
Consider `CCOC(=O)c1ccc(NP(C)(=O)Oc2ccc(OC)cc2)cc1` (stereo not given), for which the Potency entry is “inactive”.
For `O=[N+]([O-])c1cc([N+](=O)[O-])c(O)c([N+](=O)[O-])c1.c1ccc(Oc2ccncc2)cc1`, the Potency entry is “inactive”.
Still for that read-out and setting: the same measure for `O=[N+]([O-])c1cc([N+](=O)[O-])c(-n2nnc3ccccc32)c([N+](=O)[O-])c1`: “inactive”.
Turning to `O=[N+]([O-])c1cc([N+](=O)[O-])c(-c2cnn(-c3ccccc3)c2)c([N+](=O)[O-])c1`, the Potency is active: 28.2 µM.
For `CC1=C2N=C(C=C3N=C(C(C)=C4[N-][C@@](C)([C@@H]5N=C1[C@](C)(CCC(=O)NC[C@@H](C)OP(=O)([O-])O[C@H]1[C@@H](O)[C@@H](n6cnc7cc(C)c(C)cc76)O[C@@H]1CO)[C@H]5CC(N)=O)[C@@](C)(CC(N)=O)[C@@H]4CCC(N)=O)[C@@](C)(CC(N)=O)[C@@H]3CCC(N)=O)C(C)(C)[C@@H]2CCC(N)=O.[C-]#N.[Co+3]`, the Potency entry is “inactive”.
On to `CCCOc1ccc(NP(C)(=O)Oc2ccc(Cl)cc2)cc1` (stereo not given), for which the Potency entry was “inactive”.
Still for that read-out and setting: the same measure for `CP(=O)(Nc1ccc(SC(F)(F)F)cc1)Oc1ccccc1` (stereo not given): “inactive”; for `COc1ccccc1OP(C)(=O)Nc1c(C)cccc1C` (stereo not given): “inactive”.
As for `CN1CCCCC1COC(=O)C1(O)c2ccccc2CCc2ccccc21` (stereo not given), the Potency entry was “inactive”.
On to `CC1=NCCc2c1[nH]c1ccccc21.O=[N+]([O-])c1cc([N+](=O)[O-])c(O)c([N+](=O)[O-])c1`, for which the Potency entry was “inactive”.
Turning to `Cc1cc(C)cc(OP(C)(=O)Nc2ccc(C)cc2C)c1` (stereo not given), the Potency entry was “inactive”.
Regarding `CCOC(=O)c1ccc(NP(C)(=O)Oc2cc(C)cc(C)c2)cc1` (stereo not given), the Potency entry was “inactive”.
Turning to `COc1ccccc1OP(C)(=O)Nc1cccc(Br)c1` (stereo not given), the activity change, negative = inhibition was inactive: -6.62% [at 11.4 µM].
On to `Cc1cc(C)cc(OP(C)(=O)Nc2ccccn2)c1` (stereo not given), for which the Potency entry is “inactive”.
As for `CP(=O)(Nc1cccc(Br)c1)Oc1ccccc1` (stereo not given), the Potency entry was “inactive”.
In the case of `Cc1ccc(C)c(NP(C)(=O)Oc2ccccc2)c1` (stereo not given), the Potency entry is “inactive”.
